{
  "sequences": {"note": "By UniProt entry, the sequences of proteins in these tests, tags left out. Residues count along the entry.", "UniProt P47871, 26-477": "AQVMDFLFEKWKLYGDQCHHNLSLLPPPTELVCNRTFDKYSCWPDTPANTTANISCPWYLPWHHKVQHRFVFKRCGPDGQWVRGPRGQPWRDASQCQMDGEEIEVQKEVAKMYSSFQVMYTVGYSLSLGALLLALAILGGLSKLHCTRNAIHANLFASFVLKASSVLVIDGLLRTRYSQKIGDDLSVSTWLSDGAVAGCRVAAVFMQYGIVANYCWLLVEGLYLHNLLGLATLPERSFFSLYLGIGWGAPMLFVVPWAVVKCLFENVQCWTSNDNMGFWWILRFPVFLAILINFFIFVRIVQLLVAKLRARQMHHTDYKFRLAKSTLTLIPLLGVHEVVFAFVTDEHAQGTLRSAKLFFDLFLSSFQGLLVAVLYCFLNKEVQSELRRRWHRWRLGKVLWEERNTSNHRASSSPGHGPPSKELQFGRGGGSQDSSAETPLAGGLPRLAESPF", "UniProt P43220, 24-463": "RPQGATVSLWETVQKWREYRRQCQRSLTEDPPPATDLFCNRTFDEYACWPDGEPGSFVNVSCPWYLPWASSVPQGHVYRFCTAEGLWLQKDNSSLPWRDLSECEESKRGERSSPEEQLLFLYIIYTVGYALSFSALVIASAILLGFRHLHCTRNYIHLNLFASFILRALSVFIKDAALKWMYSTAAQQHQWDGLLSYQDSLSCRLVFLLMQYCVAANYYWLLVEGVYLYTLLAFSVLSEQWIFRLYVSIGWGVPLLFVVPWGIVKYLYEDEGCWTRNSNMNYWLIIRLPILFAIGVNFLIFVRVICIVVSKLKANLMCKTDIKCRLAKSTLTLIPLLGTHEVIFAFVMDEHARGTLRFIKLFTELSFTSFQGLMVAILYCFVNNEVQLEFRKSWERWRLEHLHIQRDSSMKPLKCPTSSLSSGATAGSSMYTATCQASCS"},
  "source": "patent US8703701B2",
  "about": "(Indiana University Research and Technology Corporation, priority 2009, dated 2014)",
  "key": {"glucagon receptor": {"target": "T1, glucagon receptor (Homo sapiens, UniProt P47871)", "T1 construct": "expressed in transfected cells; host or cells: HEK293", "assay": "cAMP induction, firefly luciferase reporter assay, glucagon receptor", "type": "cell-based", "conditions": "Glucagon Receptor EC50 (nM), Table 1; HEK293 cells co-transfected with receptor and CRE-luciferase", "description": "(§1) The ability of each peptide to induce cAMP was measured in a firefly luciferase-based reporter assay.\n(§2) At the end of the incubation, 100 μL of LucLite luminescence substrate reagent (Perkin Elmer, Wellesley, Mass.) were added to each well. The plate was shaken briefly, incubated 10 min in the dark and light output was measured on MicroBeta-1450 liquid scintillation counter (Perkin-Elmer, Wellesley, Mass.)."}, "GLP-1 receptor": {"target": "T2, GLP-1 receptor (Homo sapiens, UniProt P43220)", "T2 construct": "expressed in transfected cells; host or cells: HEK293", "assay": "cAMP induction, firefly luciferase reporter assay, GLP-1 receptor", "type": "cell-based", "conditions": "GLP-1 Receptor EC50 (nM), Table 1; HEK293 cells co-transfected with receptor and CRE-luciferase", "description": "as §1, §2"}},
  "data": [
    {"smiles": "CSCC[C@H](NC(=O)[C@H](CC(C)C)NC(=O)[C@H](Cc1c[nH]c2ccccc12)NC(=O)[C@H](CCC(N)=O)NC(=O)[C@@H](NC(=O)[C@H](Cc1ccccc1)NC(=O)[C@H](CC(=O)O)NC(=O)[C@@H]1CCCNC(=O)CC[C@H](NC(=O)[C@H](CC(=O)O)NC(=O)[C@H](CC(C)C)NC(=O)[C@H](Cc2ccc(O)cc2)NC(=O)[C@H](CCCCN)NC(=O)[C@H](CO)NC(=O)[C@H](Cc2ccc(O)cc2)NC(=O)[C@H](CC(=O)O)NC(=O)[C@H](CO)NC(=O)[C@@H](NC(=O)[C@H](Cc2ccccc2)NC(=O)[C@@H](NC(=O)CNC(=O)[C@H](CCC(N)=O)NC(=O)[C@H](CO)NC(=O)[C@@H](N)Cc2c[nH]cn2)[C@@H](C)O)[C@@H](C)O)C(=O)N[C@@H](CCCNC(=N)N)C(=O)N[C@@H](CCCNC(=N)N)C(=O)N[C@@H](C)C(=O)N1)C(C)C)C(=O)N[C@@H](CC(N)=O)C(=O)N[C@H](C(=O)O)[C@@H](C)O", "note": "[Peptide 4]", "values": [
      {"measurement": "EC50", "setting": "glucagon receptor", "result": 1.27, "unit": "nM"},
      {"measurement": "EC50", "setting": "GLP-1 receptor", "result": 23.8, "unit": "nM"}
    ]},
    {"smiles": "CSCC[C@H](NC(=O)[C@H](CC(C)C)NC(=O)[C@H](Cc1c[nH]c2ccccc12)NC(=O)[C@H](CCC(N)=O)NC(=O)[C@@H](NC(=O)[C@H](Cc1ccccc1)NC(=O)[C@H](CC(=O)O)NC(=O)[C@@H]1CCNC(=O)CC[C@H](NC(=O)[C@H](CC(=O)O)NC(=O)[C@H](CC(C)C)NC(=O)[C@H](Cc2ccc(O)cc2)NC(=O)[C@H](CCCCN)NC(=O)[C@H](CO)NC(=O)[C@H](Cc2ccc(O)cc2)NC(=O)[C@H](CC(=O)O)NC(=O)[C@H](CO)NC(=O)[C@@H](NC(=O)[C@H](Cc2ccccc2)NC(=O)[C@@H](NC(=O)CNC(=O)[C@H](CCC(N)=O)NC(=O)[C@H](CO)NC(=O)[C@@H](N)Cc2c[nH]cn2)[C@@H](C)O)[C@@H](C)O)C(=O)N[C@@H](CCCNC(=N)N)C(=O)N[C@@H](CCCNC(=N)N)C(=O)N[C@@H](C)C(=O)N1)C(C)C)C(=O)N[C@@H](CC(N)=O)C(=O)N[C@H](C(=O)O)[C@@H](C)O", "note": "[Peptide 5]", "values": [
      {"measurement": "EC50", "setting": "glucagon receptor", "result": 3.51, "unit": "nM"},
      {"measurement": "EC50", "setting": "GLP-1 receptor", "result": 26.1, "unit": "nM"}
    ]},
    {"smiles": "CSCC[C@H](NC(=O)[C@H](CC(C)C)NC(=O)[C@H](Cc1c[nH]c2ccccc12)NC(=O)[C@H](CCC(N)=O)NC(=O)[C@@H](NC(=O)[C@H](Cc1ccccc1)NC(=O)[C@H](CC(=O)O)NC(=O)[C@@H]1CCCNC(=O)CNC(=O)CC[C@H](NC(=O)[C@H](CC(=O)O)NC(=O)[C@H](CC(C)C)NC(=O)[C@H](Cc2ccc(O)cc2)NC(=O)[C@H](CCCCN)NC(=O)[C@H](CO)NC(=O)[C@H](Cc2ccc(O)cc2)NC(=O)[C@H](CC(=O)O)NC(=O)[C@H](CO)NC(=O)[C@@H](NC(=O)[C@H](Cc2ccccc2)NC(=O)[C@@H](NC(=O)CNC(=O)[C@H](CCC(N)=O)NC(=O)[C@H](CO)NC(=O)[C@@H](N)Cc2c[nH]cn2)[C@@H](C)O)[C@@H](C)O)C(=O)N[C@@H](CCCNC(=N)N)C(=O)N[C@@H](CCCNC(=N)N)C(=O)N[C@@H](C)C(=O)N1)C(C)C)C(=O)N[C@@H](CC(N)=O)C(=O)N[C@H](C(=O)O)[C@@H](C)O", "note": "[Peptide 6]", "values": [
      {"measurement": "EC50", "setting": "glucagon receptor", "result": 0.61, "unit": "nM"},
      {"measurement": "EC50", "setting": "GLP-1 receptor", "result": 2.38, "unit": "nM"}
    ]},
    {"smiles": "CSCC[C@H](NC(=O)[C@H](CC(C)C)NC(=O)[C@H](Cc1c[nH]c2ccccc12)NC(=O)[C@H](CCC(N)=O)NC(=O)[C@@H](NC(=O)[C@H](Cc1ccccc1)NC(=O)[C@H](CC(=O)O)NC(=O)[C@@H]1CCCNC(=O)C[C@H](NC(=O)[C@H](CO)NC(=O)[C@H](CC(=O)O)NC(=O)[C@H](CC(C)C)NC(=O)[C@H](Cc2ccc(O)cc2)NC(=O)[C@H](CCCCN)NC(=O)[C@H](CO)NC(=O)[C@H](Cc2ccc(O)cc2)NC(=O)[C@H](CC(=O)O)NC(=O)[C@H](CO)NC(=O)[C@@H](NC(=O)[C@H](Cc2ccccc2)NC(=O)[C@@H](NC(=O)CNC(=O)[C@H](CCC(N)=O)NC(=O)[C@H](CO)NC(=O)[C@@H](N)Cc2c[nH]cn2)[C@@H](C)O)[C@@H](C)O)C(=O)N[C@@H](CCCNC(=N)N)C(=O)N[C@@H](C)C(=O)N1)C(C)C)C(=O)N[C@@H](CC(N)=O)C(=O)N[C@H](C(=O)O)[C@@H](C)O", "note": "[Peptide 10]", "values": [
      {"measurement": "EC50", "setting": "GLP-1 receptor", "result": 16.2, "unit": "nM"}
    ]}
  ]
}
